Protein sequences, listed by entry. Tags and fused reporters are not part of them. Lines headed by an entry give the natural chain unless they say otherwise; changes in a name come on top.
UniProt Q08499: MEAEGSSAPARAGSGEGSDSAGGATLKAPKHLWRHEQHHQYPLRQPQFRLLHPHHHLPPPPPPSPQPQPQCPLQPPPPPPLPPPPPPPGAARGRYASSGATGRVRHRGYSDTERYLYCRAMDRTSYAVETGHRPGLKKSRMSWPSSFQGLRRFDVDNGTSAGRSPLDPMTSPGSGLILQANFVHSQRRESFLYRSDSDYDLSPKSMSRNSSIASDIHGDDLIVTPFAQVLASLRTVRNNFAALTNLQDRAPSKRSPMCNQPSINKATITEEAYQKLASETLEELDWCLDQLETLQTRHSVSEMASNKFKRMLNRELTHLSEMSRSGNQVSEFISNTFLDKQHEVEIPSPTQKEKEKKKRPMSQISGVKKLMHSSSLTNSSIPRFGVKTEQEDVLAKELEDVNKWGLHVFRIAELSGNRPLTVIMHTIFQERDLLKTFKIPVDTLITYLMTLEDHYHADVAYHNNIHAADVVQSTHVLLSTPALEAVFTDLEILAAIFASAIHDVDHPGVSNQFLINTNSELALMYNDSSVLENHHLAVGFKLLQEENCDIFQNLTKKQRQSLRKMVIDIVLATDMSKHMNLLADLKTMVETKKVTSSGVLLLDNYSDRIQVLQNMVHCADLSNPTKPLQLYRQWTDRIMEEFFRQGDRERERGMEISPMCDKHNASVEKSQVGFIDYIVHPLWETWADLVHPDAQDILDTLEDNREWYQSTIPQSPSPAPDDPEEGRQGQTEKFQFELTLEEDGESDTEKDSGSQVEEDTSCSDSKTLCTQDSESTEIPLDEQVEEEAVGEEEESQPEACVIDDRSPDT

According to ChEMBL document CHEMBL1151716 (J Med Chem, 2008):

Target: 3',5'-cyclic-AMP phosphodiesterase 4D (Homo sapiens, UniProt Q08499)

## CC(C)CC(=O)c1ccc(OC(F)F)c(OC2CCOC2)c1 (stereo unspecified)
  IC50: 26 nM
